These results are taken from PubChem BioAssay AID588358 (NMMLSC, 2011).

Protein sequences, listed by entry. Tags and fused reporters are not part of them.
UniProt P32926, whole entry, looked up: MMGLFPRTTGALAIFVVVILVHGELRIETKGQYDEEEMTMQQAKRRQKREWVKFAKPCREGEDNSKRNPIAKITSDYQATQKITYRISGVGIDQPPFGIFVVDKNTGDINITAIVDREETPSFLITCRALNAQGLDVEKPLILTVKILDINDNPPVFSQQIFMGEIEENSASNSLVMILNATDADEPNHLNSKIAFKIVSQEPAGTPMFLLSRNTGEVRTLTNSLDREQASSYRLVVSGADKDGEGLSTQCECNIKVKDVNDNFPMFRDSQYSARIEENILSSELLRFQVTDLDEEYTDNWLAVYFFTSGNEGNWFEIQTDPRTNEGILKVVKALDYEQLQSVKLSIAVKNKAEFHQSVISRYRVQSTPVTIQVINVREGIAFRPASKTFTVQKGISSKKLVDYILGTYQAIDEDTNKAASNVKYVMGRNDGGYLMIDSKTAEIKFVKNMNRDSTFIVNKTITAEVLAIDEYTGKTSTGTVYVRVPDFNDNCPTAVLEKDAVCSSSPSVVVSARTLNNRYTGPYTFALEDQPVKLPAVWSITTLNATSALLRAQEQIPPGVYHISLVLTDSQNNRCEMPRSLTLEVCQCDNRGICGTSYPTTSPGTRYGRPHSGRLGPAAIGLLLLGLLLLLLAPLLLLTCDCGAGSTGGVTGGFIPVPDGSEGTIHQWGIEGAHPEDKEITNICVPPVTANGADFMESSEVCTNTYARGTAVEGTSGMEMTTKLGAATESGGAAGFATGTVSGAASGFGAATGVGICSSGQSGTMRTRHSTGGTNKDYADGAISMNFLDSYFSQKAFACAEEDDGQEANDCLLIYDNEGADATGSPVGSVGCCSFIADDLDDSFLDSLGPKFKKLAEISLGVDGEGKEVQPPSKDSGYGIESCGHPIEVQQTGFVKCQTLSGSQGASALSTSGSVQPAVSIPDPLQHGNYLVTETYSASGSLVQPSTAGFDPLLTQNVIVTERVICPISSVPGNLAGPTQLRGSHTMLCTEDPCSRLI

Molecules are shown by their SMILES. The entries are a selection whose mix differs from that of the whole data set. Calls of active or inactive are those of the source.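 How the source made its calls: active means binding more than 3 SD below its plate's average and above zero; inconclusive means below that plate limit but binding exactly zero; inactive means the rest.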

The target of this experiment is Desmoglein-3 (Homo sapiens) (UniProt P32926). Briefly: inhibitors of pemphigus antibody binding to DSG3, primary screen, biochemical, bead-based, flow cytometry, scFv-GFP (AID 588358).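 Further: hits lower antibody fragment binding to DSG3.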 Particulars: DSG3-coupled beads, scFv-anti-DSG3-GFP binding, at 10 µM, stronger effect = lower value.
On to `CCC(=O)N(c1ccccc1)C1(COC)CCN(CCc2cccs2)CC1`, for which the binding (percent of control) was inactive: 103%.

As to `CCC(=O)N(c1ccccc1)C1(COC)CCN(CCn2nnn(CC)c2=O)CC1`, the binding (percent of control) is inactive: 95.3%.
